Experimental data taken from US12686694B2, “Method of extracting carbonic acid, aliphatic acids, esters and alcohols from an aqueous medium” (EVONIK OPERATIONS GMBH, priority 2019, dated 2026).

Assay: Extraction of hexanol from aqueous solution with trialkylphosphine in alkane or pure trialkylphosphine
Format: physicochemical

SMILES: CCCCCCCCCCCCCC [none (100% tetradecane), tetradecane]
- Equilibrium pH (hexanol extraction with buffer in aqueous phase): 5.77
- Aq. Hexanol conc. (before) (with ammonium acetate buffer in aqueous phase, mass ratio 9 to 1): 4.15 g/kg
